From PubChem BioAssay AID504357 (The Scripps Research Institute Molecular Screening Center, 2011)
This is a selection; strong and weak results do not stand in their true shares. Active and inactive are the calls of the source. Rule as the data show it: active = inhibition above about 22% (passing the limit was not always enough); inactive = the rest.

Amino acid sequences for entries named in this document (tags omitted).
UniProt P35372, whole entry, looked up: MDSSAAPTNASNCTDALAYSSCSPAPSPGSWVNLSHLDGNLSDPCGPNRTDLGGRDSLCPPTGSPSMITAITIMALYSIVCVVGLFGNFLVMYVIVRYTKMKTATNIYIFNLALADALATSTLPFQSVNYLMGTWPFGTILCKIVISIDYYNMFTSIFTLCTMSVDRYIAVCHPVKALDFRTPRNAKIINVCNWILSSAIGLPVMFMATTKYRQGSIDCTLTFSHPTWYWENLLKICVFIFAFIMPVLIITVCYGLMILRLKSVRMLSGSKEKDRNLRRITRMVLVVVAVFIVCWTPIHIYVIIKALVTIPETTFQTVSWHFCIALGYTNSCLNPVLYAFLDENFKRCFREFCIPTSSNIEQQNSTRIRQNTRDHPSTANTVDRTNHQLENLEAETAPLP
UniProt P41143, whole entry, looked up: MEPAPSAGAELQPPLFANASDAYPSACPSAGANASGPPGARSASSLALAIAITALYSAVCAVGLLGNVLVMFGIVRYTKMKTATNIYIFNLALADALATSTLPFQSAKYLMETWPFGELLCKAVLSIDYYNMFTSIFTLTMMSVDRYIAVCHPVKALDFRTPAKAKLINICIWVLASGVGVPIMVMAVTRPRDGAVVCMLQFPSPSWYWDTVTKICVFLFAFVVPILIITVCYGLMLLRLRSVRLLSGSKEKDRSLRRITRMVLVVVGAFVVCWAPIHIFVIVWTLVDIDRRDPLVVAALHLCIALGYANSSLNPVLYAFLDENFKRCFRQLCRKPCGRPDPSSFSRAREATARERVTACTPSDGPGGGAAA

These compounds were tested against Mu-type opioid receptor (Homo sapiens) + Delta-type opioid receptor (Homo sapiens) (UniProt P35372+P41143) (assay: OPRM1-OPRD1 heterodimer inverse agonism – cell-based, luminescence, primary screen (AID 504357;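 also: 0% = cells with DMSO and 100% = wells without cells with DMSO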)). Conditions: cell-based MOR-DOR heterodimer luminescence, at 9.3 µM, stronger effect = higher value.

SMILES | inhibition
CCN(CC)CCn1c(NCc2ccc(C)o2)nc2ccccc21 | inactive: 8.38%
O=C(Nc1nc2ccccc2n1CCN1CCCC1)C1CCCCC1 | inactive: 8.13%
Cn1c(=O)c2c(ncn2CC(=O)N(Cc2ccccc2)c2ccccn2)n(C)c1=O | inactive: 18.8%
CCCCNC(=O)Cn1c(=O)n(C)c2ccccc21 | inactive: -1.95%
O=C(Cn1cnc2c(NCc3ccccc3)ncnc21)NCCc1cc2ccccc2[nH]1 | inactive: 7.89%
NC(=O)Nc1ccc([As](=O)(O)O)cc1 | inactive: 17%
O=C(Cn1cnc2ccccc21)N/N=C/c1cccc([N+](=O)[O-])c1 | inactive: -4.88%
CC(=O)OCCNC(=O)Cn1cnc2c1c(=O)n(C)c(=O)n2C | inactive: 14.8%
Cc1cccc(C)c1NC(=O)Cn1cnc2c(=O)n(C)c(=O)n(C)c21 | inactive: 8.45%
Cc1nc2ccccc2n1C1CC(=O)N(N(C)C)C1=O (stereo unspecified) | inactive: 18.6%
CC(=O)Nc1nc2ccccc2n1CCN1CCOCC1 | inactive: 1.23%
CCOC(=O)C1=C(Cn2cnc3ccccc32)NC(=O)NC1c1ccc(OC)cc1 (stereo unspecified) | inactive: 5.62%
O=C(CCCCCNC(=O)N1CCn2c1nc1ccccc12)NCc1ccc(Cl)cc1 | inactive: 10.1%
CC1Cc2ccccc2N1C(=O)CSc1nc2ccccc2n1CC(=O)N1CCOCC1 (stereo unspecified) | inactive: 3.8%
CC(C)NC(=S)N1CCn2c(nc3ccccc32)C1 | inactive: 0.7%
Nc1nc2ccccc2n1CCN1CCCC1 | inactive: 10.7%
COc1ccc(CC(C)NCC(O)c2ccc(O)c(NC=O)c2)cc1 (stereo unspecified) | inactive: 13.9%
FC(F)(F)c1ccc2c(c1)ncn2C1CCN(Cc2nnnn2C2CCCCC2)CC1 | inactive: 1.41%
Cc1nn2c3ccccc3n(CCN3CCCCC3)c2nc1=O | inactive: 11.1%
Cc1ccc2c(c1)C1CN(C)CCC1N2S(=O)(=O)c1ccc(C#N)cc1 (stereo unspecified) | inactive: 14.3%
O=C(Cn1c(CO)nc2ccccc21)NC1CCCCCC1 | inactive: 14.7%
N#CCC(=O)N1CCn2c1nc1ccccc12 | inactive: 12.9%

SMILES | inhibition
CCN(CC)CCn1c(NCc2cc(OC)ccc2OC)nc2ccccc21 | inactive: 14.9%
CCOC(=O)CSc1nc2ccccc2n1CC(=O)NC(C)(C)C | inactive: 12%
COc1ccc(-c2csc(NCCn3c(C)nc4cc(C(F)(F)F)ccc43)n2)cc1 | inactive: 6.05%
O=C(Cn1c(-c2cncs2)nc2ccccc21)NC1CCCC1 | inactive: 18.2%
CCOC(=O)C1=C(C)N=C2SCCC(=O)N2[C@@H]1/C=C/c1ccccc1 | inactive: -36.9%
COC(=O)[C@H](CC(C)C)NC(=O)Cn1cnc2c(OCc3ccccc3)ncnc21 | inactive: 0.43%
Cc1cccc(OCC(=O)OC2CN3CCC2CC3)c1 (stereo unspecified) | inactive: 7.88%
C=CCOC(=O)C1=C(C)N=C2SCCC(=O)N2C1/C=C/c1ccccc1 (stereo unspecified) | inactive: 5.05%
Cn1c(=O)c2c(ncn2CCN(CCO)Cc2ccccc2)n(C)c1=O | inactive: 9.05%
O=[As](O)(c1cccc(O)c1)c1cccc(O)c1 | inactive: 10.3%
COc1ccc(CNc2nc3ccccc3n2CCN2CCOCC2)cc1 | inactive: 12.5%
CCN(CC)CCn1cnc2c1c(=O)n(CCOC(=O)c1cc(OC)c(OC)c(OC)c1)c(=O)n2C | inactive: 13%
O=C(Cn1cnc2ccccc21)Nc1cccc(S(=O)(=O)N2CCCC2)c1 | inactive: 5.04%
O=[N+]([O-])c1ccc2c(c1)nc1n2CCN(C2CCCCC2)C1 | inactive: 7.96%
COC(=O)Cn1c(=N)n(CCN2CCCCC2)c2ccccc21 | inactive: 13.5%
CC(C)(C)NC(=O)Cn1c(-c2nonc2N)nc2ccccc21 | inactive: 9.8%
CCc1ccc(NC(=O)Cn2c3[n+](c4c(F)c(F)ccc42)CCCCC3)cc1 | inactive: 13.8%
CC(C(=O)Nc1ccccc1C(=O)O)n1c(C(F)(F)F)nc2ccccc21 (stereo unspecified) | inactive: 10.6%
Cn1c(=O)c2ncn(CC(=O)NCCOc3ccccc3)c2n(C)c1=O | inactive: 13.9%
C[C@H](NC(=O)N1CCn2c1nc1ccccc12)C(=O)NCC1CCCO1 (stereo partly specified) | inactive: 17.4%
CCC(=O)Nc1ccc(NC(=S)NC(=O)/C=C/c2ccco2)cc1 | inactive: 11.8%
CCN(CC)CCn1cnc2c1c(=O)[nH]c(=O)n2Cc1ccccc1 | inactive: 7.81%

SMILES | inhibition
Cc1ccc(S(=O)(=O)c2nnn3c2nc(NC2CCN(Cc4ccccc4)CC2)c2ccccc23)cc1C | inactive: -121%
CN1CCC(N(C)c2nc(-c3ccccc3)nc3ccccc23)CC1 | inactive: -41.9%
Cn1cccc1/C=N/NC(=O)Cn1cnc2ccccc21 | inactive: 8.24%
CN1CCN(C(=O)Cn2c(C(F)(F)F)nc3ccccc32)CC1 | inactive: 1.13%
c1ccc(Cn2c(CNc3nc4ccccc4n3CCN3CCCCC3)nc3ccccc32)cc1 | inactive: -41.7%
O=C(OC1CN2CCC1CC2)c1ccc(Cl)cc1 (stereo unspecified) | inactive: 7.98%
O=C(c1ccccc1)N1CCn2c1nc1ccccc12 | inactive: 10.1%
CC(C(=O)N1CCc2ccccc21)n1cnc2c1c(=O)n(C)c(=O)n2C (stereo unspecified) | inactive: -9.28%
C(=N\c1nc2ccccc2n1CCN1CCOCC1)/c1cccs1 | inactive: 4.94%
Cn1c(=O)c2c(ncn2CC(=O)Nc2cccc(S(=O)(=O)Nc3ccccc3F)c2)n(C)c1=O | inactive: 15.5%
CS(=O)(=O)c1ccc(Cl)c(NC(=O)COC(=O)C(O)(c2ccccc2)c2ccccc2)c1 | inactive: 1.67%
COCCCNC(=O)Cn1cnc2c(NCc3ccccc3)ncnc21 | inactive: 9.71%
Cn1c(=O)c2c(ncn2CC(=O)N2CCCCCC2)n(C)c1=O | inactive: 7.52%
O=C(Cn1cnc2ccccc21)N/N=C/c1cccnc1 | inactive: 14%
CN(C)C(=O)Cn1c(=O)n(C)c2ccccc21 | inactive: 3.41%
O=[As](O)(O)c1cccnc1 | inactive: 9.39%
OCCNc1nc2ccccc2n1CCN1CCCCC1 | inactive: 18%
Cc1nc2ccccc2n1CC(=O)NCCN1CCOCC1 | inactive: 8.14%
CC(C)C(NS(=O)(=O)c1cccc2nsnc12)C(=O)N1CCn2c1nc1ccccc12 (stereo unspecified) | inactive: 18.2%
CCC(C)N(C(=O)Cn1cnc2c1c(=O)n(C)c(=O)n2C)C1CCS(=O)(=O)C1 (stereo unspecified) | inactive: 0.69%
Cc1nc2cc(C(F)(F)F)ccc2n1CCNc1nc(-c2ccc([N+](=O)[O-])c(Cl)c2)cs1 | inactive: -26.9%
O=C(Nc1ccccc1)N1CCn2c(nc3ccccc32)C1 | inactive: 11.6%

SMILES | inhibition
O=C(Nc1ccc2c(c1)nc1n2CCN(C2CCCCC2)C1)c1ccco1 | inactive: -6.89%
O=C(CSc1nc2ccccc2n1CC(=O)N1CCCC1)Nc1ccc2c(c1)OCO2 | inactive: -6.22%
COc1cccc(CNc2nc3ccccc3n2CCN2CCCCC2)c1 | inactive: 0.41%
CCOP(=O)(Nc1cccc2ccccc12)OCC | inactive: -2.43%
CCOC(=O)CC[C@H](NC(=O)Cn1cnc2c(OCc3ccccc3)ncnc21)C(=O)OCC | inactive: 9.25%
COc1ccc(CNC(=O)[C@H](C)NC(=O)N2CCn3c2nc2ccccc23)cc1 | inactive: 12.2%
COc1cccc(CNC(=O)[C@H](CC(C)C)NC(=O)N2CCn3c2nc2ccccc23)c1 | inactive: 0.23%
CCN(CC)CCn1c(NC(=O)c2ccc(Cl)cc2)nc2ccccc21 | inactive: -31.1%
Cn1c(=O)n(CC(N)=O)c2ccccc21 | inactive: 5.58%
COc1cc(C2NCCC3(OCCO3)C2(C)C)cc(OC)c1OC (stereo unspecified) | inactive: -3.4%
CC(=O)Nc1ccc2c(c1)nc1n2CCN(C2CCCCC2)C1 | inactive: 7.1%
O=C(Cn1c(S(=O)(=O)Cc2ccccc2)nc2ccccc21)N1CCCCC1 | inactive: 0.1%
COCCN1CCn2c(nc3cc(NC(=O)c4cccs4)ccc32)C1 | inactive: 2.05%
O=C(Cn1c(-c2ccccn2)nc2ccccc21)N/N=C/c1ccccn1 | inactive: -13%
O=C(CCCCCNC(=O)N1CCn2c1nc1ccccc12)NCc1ccccc1Cl | inactive: 14.9%
O=C(Cn1c(NCCO)nc2ccccc21)NCC1CCCO1 (stereo unspecified) | inactive: 4.43%
Cc1ccc2c(c1)C1CN(C)CCC1N2S(=O)(=O)c1cc(C(F)(F)F)ccc1Cl (stereo unspecified) | inactive: -3.91%
CCCC(=O)Nc1nnc(/C=C/c2ccc(OC)cc2)s1 | inactive: 10.5%
CC(C)[C@H](NC(=O)N1CCn2c1nc1ccccc12)C(=O)N[C@@H](C(=O)O)c1ccccc1 | inactive: 13.2%
O=C(Cn1cnc2c(NCc3ccccc3)ncnc21)NCc1ccccn1 | inactive: 14.1%
O=C(Cn1cnc2c(NCc3ccccc3)ncnc21)NCC1CCCO1 (stereo unspecified) | inactive: 11.8%
CC1CCC2C(=O)N(c3ccc(NC4CCN(Cc5ccccc5)CC4)c([N+](=O)[O-])c3)C(=O)C2C1 (stereo unspecified) | inactive: -4.16%

SMILES | inhibition
c1ccc2c(c1)nc1n2CCN1 | inactive: 12%
Cc1ccc2c(c1)C1CN(C)CCC1N2C(=S)Nc1ccc(OC(F)F)cc1 (stereo unspecified) | inactive: 3.03%
CC(=O)Nc1nc2ccccc2n1CCN(C)C | inactive: 9.89%
COc1ccc(CNC(=O)Cn2cnc3c(OCc4ccccc4)ncnc32)cc1 | inactive: 6.6%
O=C(Cn1c(C(F)(F)F)nc2ccccc21)Nc1ccccc1N1CCOCC1 | inactive: -4.37%
Nc1cccc2c([As](=O)(O)O)cccc12 | inactive: -3.11%
O=C(Cn1c(CO)nc2ccccc21)NCCc1ccccc1 | inactive: 6.81%
Cc1ccc(NCCc2c([N+](=O)[O-])cc([N+](=O)[O-])cc2[N+](=O)[O-])cc1 | inactive: -36.7%
Oc1ccc(CC2(N3CCCC3)CCCCC2)cc1 | inactive: -1.82%
Cc1ccc2c(c1)C1CN(C)CCC1N2C(=O)c1ccccc1NS(=O)(=O)c1cccc(C(F)(F)F)c1 (stereo unspecified) | inactive: -6.98%
O=C(Nc1nc2ccccc2n1CCN1CCOCC1)c1ccccc1 | inactive: 17.7%
NNC(=O)Cn1cnc2ccccc21 | inactive: -5.87%
CSCC[C@H](NC(=O)N1CCn2c1nc1ccccc12)C(=O)N1CCCCC1 | inactive: 14%
C[C@H](NC(=O)N1CCn2c1nc1ccccc12)C(=O)NCc1ccc(F)cc1 | inactive: 10.3%
Cn1c(=O)n(CCc2ccccc2)c(=O)c2c1nc1n2CCN1Cc1ccco1 | inactive: 17.1%
CCN(CC)CCCNC(=S)N1CCn2c(nc3ccccc32)C1 | inactive: 13.4%
O=C(CSc1nc2ccccc2n1CC(=O)N1CCOCC1)N1CCCC1 | inactive: 15.7%
CCCOP(=S)(Nc1nc(N)cc(=O)[nH]1)OCCC | inactive: 6.22%
